Bioassay records as filed in PubChem BioAssay.
Hits are enriched below; roughly 1.5% of the tested compounds scored in any of these assays.
RAD54 inh: blocks human RAD54 Holliday junction branch migration. Q92698. FAM/BHQ fluorescence. inhibition, % at 10.4 µM. 360,000 compounds, 0.14% hits. AID 602329;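 active = mean normalized replicate activity at least 40 and at least half of replicates scoring 40 or more; inconclusive = only one of the two criteria met; inactive = mean below 40 and under half of replicates reaching 40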;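 also: 0% = median of neutral control wells and 100% = median of positive control wells; inhibitors cause a drop in the FAM fluorescence signal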
PglD DTNB: blocks C. jejuni PglD acetyltransferase activity. 360,000 compounds, 0.098% hits. AID 602405. purified PglD enzyme, DTNB colorimetric CoA detection. inhibition, % at 12.5 µM; in the data active = inhibition above about 16%, passing the limit was not always enough; inconclusive = no clear call, values can overlap the other calls
INS-1E GSIS act: primary screen for activators of insulin secretion dependent on glucose, INS-1E cells, GLuc reporter luminescence | activation, % at 16.6 µM | INS-1E GLuc reporter insulin secretion, 2-3 h | 370,000 compounds, 0.61% hits;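 active = lowest replicate activation of at least 40%, so every replicate reaches that level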;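 also: 0% = median of neutral control wells and 100% = median of IBMX positive control wells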
Yeast UUG start: modulators of start codon recognition fidelity in yeast. activity score, % at 18.7 µM. S. cerevisiae UUG-firefly luciferase reporter, luminescence/redox ratio. 350,000 compounds, 0.13% hits;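 active means replicate mean at a twofold rise or more, about +100% in these data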;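 further: firefly luciferase made from a UUG start codon reports start codon fidelity; reporter light over untreated wells divided by growth signal over untreated wells; some hits fall short of that in this replicate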
CASP6 VEID inh: caspase-6 (human) enzyme inhibition; P55212; purified caspase-6, Z-VEID-R110 cleavage fluorescence; inhibition, % at 12.5 µM; 350,000 compounds, 0.53% hits; AID 686996;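 active = mean inhibition across replicates at least about 35%, with every replicate also reaching that limit, limit read from the data; inconclusive = only one of the two criteria met; inactive = neither criterion met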;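 also: 0% = median of neutral control wells and 100% = no fluorescence left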
RAD52 inh: blocks human RAD52 DNA annealing; P43351; recombinant RAD52 DNA annealing, FRET fluorescence; inhibition, % at 18.7 µM; 360,000 compounds, 0.46% hits;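 active = every replicate showing at least 50% inhibition; inconclusive = mean inhibition at least 50% but not in every replicate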
Rad54 DNA ctr: counter-screen for Rad54 inhibitors: DNA binding compounds; AC50, µM (highest dose often 35 µM), for inactives: at the highest dose activity change, negative = DNA binding; 460 compounds, 8% hits; shares compounds with RAD54 inh; Acridine orange-DNA displacement, fluorescence polarization, 20 min;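 active = signal drop giving an AC50 within twice the top valid tested concentration of each sample, actives reach about 35 µM in these data; inactive = activity opposite to expected, plus the rest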;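 also: polarization loss reports compound binding to salmon sperm DNA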
* marks the source's active call; other numbers are inactive results; i = inactive; ? = inconclusive; nt = not tested or not shown.

SMILES	RAD54 inh	PglD DTNB	INS-1E GSIS act	Yeast UUG start	CASP6 VEID inh	RAD52 inh	Rad54 DNA ctr
Cc1cccn2c(=O)c3cc(C(=O)NCCN4CCOCC4)c(=N)n(CCc4ccccc4)c3nc12	42.7	0.6	nt	-3.6	nt	nt	nt
CCNC(=O)c1cc2c(=O)n3cccc(C)c3nc2n(CCc2ccccc2)c1=N	50.3*	-10.8	nt	-36.1	nt	nt	0.0%
COc1cccc2sc3ccc(NCCC4CCCN4C)cc3c(=O)c12 (configuration not stated)	61.0*	2.0	nt	6.9	-7.0	12.8	-11.5%
COc1cc2sc3cc(NCc4ccc(C)o4)ccc3c(=O)c2cc1OC	11.3	-2.7	7.1	-22.3	3.9	11.8	nt
COc1cc2sc3cc(NCC[C@@H]4CCCN4C)ccc3c(=O)c2cc1OC	75.5*	-1.1	3.1	-0.3	-55.9	3.1	-22.5%
COc1cccc2sc3cc(NCc4ccc5c(c4)OCO5)ccc3c(=O)c12	11.9	-3.8	-0.2	-1.5	1.7	-296.4	nt
C(=C/c1nccc2c1[nH]c1ccccc12)/c1ccc2c(c1)OCO2	58.5*	-1.4	15.9	-10.1	2.8	-74.4	-9.0%
CC(=O)c1cccc(N(CC(=O)Nc2cccnc2)S(C)(=O)=O)c1	0.0	4.4	16.9	-6.6	-1.1	-14.6	nt
O=C(NC1CC1)c1cccc(Nc2ccc(-c3ccc4c(c3)OCCO4)nn2)c1	7.8	-9.9	-28.1	0.7	nt	nt	nt
OCCN1CCN(c2ncnc3c2sc2nc(N4CCOCC4)c4c(c23)CCC4)CC1	53.1*	nt	-12.7	-9.1	nt	15.4	-8.2%
OCCN(CCO)c1ncnc2c1sc1nc(N3CCOCC3)c3c(c12)CCCC3	32.4	5.5	nt	-11.2	nt	nt	nt
O=C(C[C@H]1CC[C@H]2[C@@H](COC[C@H](O)CN2CC2CCOCC2)O1)N1CCOCC1	1.3	-0.7	8.0	7.6	-1.8	8.2	nt

An excerpt from above in order of length of the SMILES, high to low:
SMILES	RAD54 inh	PglD DTNB	INS-1E GSIS act	Yeast UUG start	CASP6 VEID inh	RAD52 inh	Rad54 DNA ctr
O=C(C[C@H]1CC[C@H]2[C@@H](COC[C@H](O)CN2CC2CCOCC2)O1)N1CCOCC1	1.3	-0.7	8.0	7.6	-1.8	8.2	nt
Cc1cccn2c(=O)c3cc(C(=O)NCCN4CCOCC4)c(=N)n(CCc4ccccc4)c3nc12	42.7	0.6	nt	-3.6	nt	nt	nt
OCCN1CCN(c2ncnc3c2sc2nc(N4CCOCC4)c4c(c23)CCC4)CC1	53.1*	nt	-12.7	-9.1	nt	15.4	-8.2%
COc1cc2sc3cc(NCC[C@@H]4CCCN4C)ccc3c(=O)c2cc1OC	75.5*	-1.1	3.1	-0.3	-55.9	3.1	-22.5%
COc1cc2sc3cc(NCc4ccc(C)o4)ccc3c(=O)c2cc1OC	11.3	-2.7	7.1	-22.3	3.9	11.8	nt
COc1cccc2sc3ccc(NCCC4CCCN4C)cc3c(=O)c12 (configuration not stated)	61.0*	2.0	nt	6.9	-7.0	12.8	-11.5%

The list continues:
SMILES	RAD54 inh	PglD DTNB	INS-1E GSIS act	Yeast UUG start	CASP6 VEID inh	RAD52 inh	Rad54 DNA ctr
CCOC(=O)N1CCN(S(=O)(=O)c2ccc(C(=O)Nc3sc4c(c3C(=O)OC)CCN(C)C4)cc2)CC1	?	0.3	-31.3	7.6	-21.7	-76.5	-6.7%
CCCN1CCc2c(sc(NC(=O)c3ccc(S(=O)(=O)N4CCN(C(=O)OCC)CC4)cc3)c2C(N)=O)C1	-24.5	0.3	nt	-1.5	-3.0	-4.5	nt
O=C(CCl)N(CCCNC(=O)C(F)(F)F)c1ccc([N+](=O)[O-])cc1	10.3	1.8	-6.8	5.4	7.8	-8.1	nt
CCC(CC)C(=O)c1c[nH]c(C(=O)NCCc2ccccn2)c1	-8.3	0.5	-3.2	-0.6	nt	nt	nt
CCOc1ccc2[nH]c3c(NCCN(C)C)ncnc3c2c1	?	5.5	9.6	-4.7	-7.1	64.7*	0.0%
CC(=O)NS(=O)(=O)c1ccc(N2C(=O)c3ccccc3C2=O)cc1	nt	nt	-6.3	nt	-4.2	-7.2	nt
O=C(Nc1ccc2c(c1)OCO2)c1cc(-c2ccncc2)nc2ccccc12	?	1.2	10.9	-1.1	2.1	12.4	2.8%
CCN(CC)CC(=O)Nc1c(C)cccc1C	-7.6	-1.0	1.8	-3.1	-0.8	-6.6	nt
CCN(CC)CC(=O)Nc1cccc2c1C(=O)c1ccccc1C2=O	70.4*	7.5	16.7	0.0	nt	nt	2.0%
Cc1nc2nc(C)c(C)nc2nc1C	55.8*	3.1	6.8	-21.2	1.1	-3.0	9.8%
CC(C)CSc1ncc(-c2cccc(C(F)(F)F)c2)cn1	?	-6.5	nt	-2.6	nt	nt	-12.9%
CN(C)CCCn1c(SCC(=O)Nc2nc(-c3cccc(Br)c3)cs2)nc2ccccc2c1=O	?	-0.2	6.8	-19.8	-11.3	2.0	-19.1%
c1ccc(-c2cc3c(N4CCCC4)ncnc3s2)cc1	nt	nt	4.2	nt	5.0	-10.8	nt
OCCN1CCN(c2ncnc3sc(-c4ccccc4)cc23)CC1	?	-0.7	5.2	-5.8	-5.3	42.4	-21.2%
CCN1CCN(C(c2nnnn2Cc2ccc3c(c2)OCO3)C(C)C)CC1 (configuration not stated)	-5.6	8.9	nt	-16.6	nt	nt	nt
CCCN(CCC)c1nc(-c2ccccn2)nc2ccccc12	89.6*	-8.6	-23.9	-37.9	-4.6	45.4	-15.0%
Cc1nc2ccccc2c2oc(C(=O)NCCN3CCN(C)CC3)cc12	?	1.4	24.1	8.8	-19.4	20.3	-13.2%
Cc1nc2ccccc2c2oc(C(=O)NCCCN3CCCC3=O)cc12	7.5	-4.0	14.3	-15.0	-1.0	-3.7	nt
C[C@H](CO)N1C[C@H](C)[C@H](CN(C)CC2CCCCC2)OCc2cnnn2CCCC1=O	8.0	1.0	6.3	-6.0	2.3	9.8	nt
COc1ccc(Cl)c2sc(N(CCN(C)C)C(=O)C3=COCCO3)nc12	?	-2.8	24.2	-21.6	8.6	36.9	3.1%
CN(C)CCN(C(=O)C1=COCCO1)c1nc2ccc(F)cc2s1	6.5	1.0	20.3	-14.4	-3.8	19.4	nt
CCN(CC)CCCNC(=O)c1cc2c(-c3ccc(Cl)cc3)nn(C)c2s1	?	-8.5	5.9	-17.3	-6.3	45.2	5.6%
CCCCN(CC)CCNC(=O)c1cc2c(-c3ccccc3F)nn(C)c2s1	32.0	4.9	-11.8	-7.8	-1.7	14.3	nt
CN1CCN(CCCNC(=O)c2cc3c(-c4ccc(Cl)cc4)nn(C)c3s2)CC1	61.4*	-5.3	-5.0	-10.2	-10.0	28.0	3.3%
Cc1c(CN(C)C)c2c(n1C)C(=O)c1ccc(Br)cc1-2	70.9*	-0.8	nt	-13.0	nt	nt	i
CO[C@@H]1CN(C)C(=O)c2cc(NS(C)(=O)=O)ccc2OC[C@@H](C)N(C(=O)CC2CC2)C[C@H]1C	5.9	1.6	-0.2	-1.7	-0.4	-12.5	nt
COc1cc2c3nnc(-c4ccc(F)cc4)c-3cn(Cc3ccc(F)cc3)c2cc1OC	-17.7	2.6	-1.4	-3.0	-3.6	i	nt
COc1ccc(Cn2cc3c(-c4ccc(F)cc4)nnc-3c3cc(OC)c(OC)cc32)cc1	63.9*	2.9	nt	-19.8	1.7	-242.5	0.3%
C[C@@H]1CCCCO[C@@H](CN(C)CC2CCCCC2)[C@@H](C)CN([C@H](C)CO)C(=O)c2cc(NC(=O)c3ccncc3)ccc2O1	5.6	6.8	6.1	nt	-7.7	12.8	nt
NCc1csc(Nc2nncc3ccccc23)n1	74.6*	-5.7	nt	-10.4	-1.0	29.9	-7.8%
CC(C)N1CCc2c(sc(NC(=O)c3ccc(C(=O)c4ccccc4)cc3)c2C(N)=O)C1	50.5*	8.1	-10.7	5.4	-24.8	-66.4	-8.6%
COC(=O)c1c(NC(=O)c2ccco2)sc2c1CCN(C(C)C)C2	61.8*	-9.0	-11.5	-17.1	-5.9	30.5	-8.7%
CO[C@H]1CN(C)C(=O)c2cc(NC(=O)C3CC3)ccc2OC[C@@H](C)N(C(=O)c2ccccn2)C[C@H]1C	nt	nt	13.4	nt	nt	nt	nt
CCOC(=O)c1c(NC(C)=O)sc2c(OCC(O)CNC(C)(C)C)c(Br)ccc12 (configuration not stated)	?	-1.8	44.9*	11.6	nt	nt	-12.0%
